Measured values: patent US8426179B2, “Synthetic peptide and peptide conjugates and related tissue coupling methods via transglutaminase enzyme” (priority 2007, dated 2013)

Columns and labels:
[1] = Hydrolysis of the hydrocortisone prodrugs in solution (buffers); assay type: physicochemical; settings: 1.0 mM, Buffer 1 (PBS, pH 7.4), 37° C.
Experimental: This solution also contained 2 mM 6α-methyl prednisolone as an internal standard. The samples were then stored at −20° C. until analyzed with RP-HPLC and eluted with a linear gradient of 24-55% acetonitrile in water with 0.1% TFA. The amount of hydrocortisone hydrolyzed from the prodrug was determined by comparing its peak area to that of 6α-methyl prednisolone. […] Thirty microliter samples were collected at 10, 20, 30, and 60 minutes and analyzed as previously described.

[2] = Release of hydrocortisone from coupled prodrugs on the articular surface of cartilage; settings: any of the fluids utilized

## hydrocortisone-GFKG-PEG [TRIP-PC]
[1]
  T50%: 50.2 min and 51.1 min
[2]
  hydrocortisone hydrolysis from coupled prodrug, TRIP-C compared with TRIP-PC: no difference in hydrocortisone hydrolysis

Where “and” joins values, the source holds several entries; their conditions need not be identical. Identical values can stand only once.
